Laboratory results from patent publication US20130023553A1, “PEGYLATED OPIOIDS WITH LOW POTENTIAL FOR ABUSE AND SIDE EFFECTS” (Nektar Therapeutics, priority 2010, published 2013).

By UniProt entry, the sequences of proteins in these tests, tags left out. Where a name states a change or a piece, a line headed by the entry shows the natural chain unless it says otherwise.
UniProt P41145: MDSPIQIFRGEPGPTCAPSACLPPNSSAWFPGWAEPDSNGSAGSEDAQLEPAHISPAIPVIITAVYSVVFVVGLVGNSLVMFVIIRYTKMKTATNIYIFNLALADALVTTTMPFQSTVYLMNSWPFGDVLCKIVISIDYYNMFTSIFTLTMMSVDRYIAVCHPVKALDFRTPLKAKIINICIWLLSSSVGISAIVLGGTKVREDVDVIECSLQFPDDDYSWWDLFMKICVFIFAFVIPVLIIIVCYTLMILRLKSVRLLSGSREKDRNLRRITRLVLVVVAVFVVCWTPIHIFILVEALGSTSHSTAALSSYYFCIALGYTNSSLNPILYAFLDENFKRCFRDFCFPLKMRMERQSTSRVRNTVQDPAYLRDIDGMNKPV

Target: T1, human kappa opioid receptor (Homo sapiens, UniProt P41145)
T1 construct: expressed in transfected cells; host or cells: CHO cells
Test: biochemical
Assay type: binding

COc1ccc2c3c1O[C@H]1[C@@H](O)C=C[C@H]4[C@@H](C2)N(C)CC[C@@]341 [Codeine, codeine, reference compound] gave a pKi of 4.55.

pKi: −log10 of the molar value.
